The source of these data is patent US20250177359A1, “COMPOUNDS FOR USE IN THE TREATMENT OF CANCER AND INFLAMMATORY CONDITIONS” (priority 2022, published 2025).

Chains of the proteins cited; added tags and fusions are not shown.
UniProt Q53GL7, whole entry: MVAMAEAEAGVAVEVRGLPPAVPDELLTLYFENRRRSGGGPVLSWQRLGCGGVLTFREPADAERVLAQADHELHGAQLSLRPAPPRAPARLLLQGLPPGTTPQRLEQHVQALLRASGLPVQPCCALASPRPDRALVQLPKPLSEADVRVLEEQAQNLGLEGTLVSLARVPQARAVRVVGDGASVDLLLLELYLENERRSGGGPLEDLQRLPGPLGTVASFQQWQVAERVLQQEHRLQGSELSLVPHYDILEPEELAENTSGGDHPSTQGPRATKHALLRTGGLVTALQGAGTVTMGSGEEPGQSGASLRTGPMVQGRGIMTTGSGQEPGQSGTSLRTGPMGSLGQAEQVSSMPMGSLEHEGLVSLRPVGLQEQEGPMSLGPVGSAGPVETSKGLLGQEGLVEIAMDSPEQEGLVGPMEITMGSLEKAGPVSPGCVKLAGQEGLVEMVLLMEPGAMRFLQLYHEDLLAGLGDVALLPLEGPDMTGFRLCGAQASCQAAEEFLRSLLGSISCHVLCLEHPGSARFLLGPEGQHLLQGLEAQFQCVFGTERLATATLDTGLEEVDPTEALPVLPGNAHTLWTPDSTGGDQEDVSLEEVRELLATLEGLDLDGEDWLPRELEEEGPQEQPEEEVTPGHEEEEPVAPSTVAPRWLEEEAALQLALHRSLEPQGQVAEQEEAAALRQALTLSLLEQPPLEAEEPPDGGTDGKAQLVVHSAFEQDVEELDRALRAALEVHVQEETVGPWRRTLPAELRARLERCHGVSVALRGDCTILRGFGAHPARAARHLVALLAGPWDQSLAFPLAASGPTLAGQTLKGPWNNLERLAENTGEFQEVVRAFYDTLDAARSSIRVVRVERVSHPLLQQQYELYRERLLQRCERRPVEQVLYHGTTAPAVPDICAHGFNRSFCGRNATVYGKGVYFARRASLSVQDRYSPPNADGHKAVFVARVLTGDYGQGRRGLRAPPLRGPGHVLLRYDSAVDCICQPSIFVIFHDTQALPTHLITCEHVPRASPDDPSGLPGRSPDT

The structures appear in SMILES notation.

The target in this experiment is PARP10 (Homo sapiens, UniProt Q53GL7). The experiment is described as follows: Activity assay measuring NAD+ consumption, PARP10 (Tables 1-3). Format: biochemical. Conditions: Tables 1-3 assay.

The IC50 is the concentration that gives 50% inhibition. In the case of `Cc1ccc2c(n1)sc1nnc(N)n12`, the “PARP10 pIC50 ± SEM” value was found to be 7.26 ± 0.06. Further, the IC50 (read-out: PARP10 IC50) came to 60 nM.
